Here are results for one substance from patent publication US20110071403A1, “FUNCTIONAL NEAR-INFRARED FLUORESCENCE LYMPHATIC MAPPING FOR DIAGNOSING, ACCESSING, MONITORING AND DIRECTING THERAPY OF LYMPHATIC DISORDERS” (BOARD OF REGENTS OF THE UNIVERSITY OF TEXAS SYSTEM, priority 2009, published 2011).

Data set [1] is described as follows: optical characterization of NIR imaging agents (spectra, extinction coefficient, quantum yield, lifetime, relative brightness). Type of data set: physicochemical. The settings on record: 1 μM solution. On the procedure: Fluorescence quantum yield was determined by the comparative method of Williams et al. 1983 (Williams, Winfield and Miller. Analyst 109, 1067, 1983) using the quantum yield of ICG (in water) at 785/830 nm (24) as a standard. Lifetime measurements were obtained using the frequency domain-method using ICG as a standard. The IC50 of IRDye800-ABD was determined using a competitive binding assay modified from Dennis et al. 2002 (ibid). Briefly, MAXISORP fluorescent plates (Nunc, Rochester, N.Y.) were coated with mouse serum albumin (Sigma St Louis, Mo.) and incubated overnight at 4 degrees. Plates were washed three times with PBS+0.05% Tween20 (Sigma St. Louis, Mo.) to remove unbound albumin and were then blocked with TBS in casein (Pierce Rockford, Ill.) for 1 hour at 25 degrees. […] The plate was washed with PBS+0.05% Tween20 three times to remove unbound peptide and fluorescence was measured using the ODYSSEY fluorescent plate reader (LI-COR, Lincoln, Nebr.). The average and standard deviation of four IC-50 values were determined.
In addition, Table 1 lists the relative brightness of each compound relative to ICG which was computed by taking the ratio of ((extinction coefficient)×(quantum yield))/((extinction coefficient of ICG)×(quantum yield of ICG)). […] Spectra for ICG and the IRDye800 conjugates were determined.

The test system of another data set is inguinal lymph node. The settings on record: mouse, in vivo.

With “IRDye800-MSA: IRDye800 conjugated to mouse serum albumin, dye to protein ratio of 2.8, provided by LI-COR”, in data set [1], the Emission maximum was 802 and the Excitation maximum amounted to 787. Further, in the data set with inguinal lymph node, the “fluorescence intensity in inguinal node, initially” value is given as “started out with a lower intensity” and the “lymphatic clearance from inguinal lymph node” value is listed as “slowed clearance”.
